Measurements taken from patent US12195429B2, “Cannabinoid derivatives” (CANOPY GROWTH CORPORATION, priority 2019, dated 2025).

By UniProt entry, the sequences of proteins in these tests, tags left out.
UniProt P21554, whole entry: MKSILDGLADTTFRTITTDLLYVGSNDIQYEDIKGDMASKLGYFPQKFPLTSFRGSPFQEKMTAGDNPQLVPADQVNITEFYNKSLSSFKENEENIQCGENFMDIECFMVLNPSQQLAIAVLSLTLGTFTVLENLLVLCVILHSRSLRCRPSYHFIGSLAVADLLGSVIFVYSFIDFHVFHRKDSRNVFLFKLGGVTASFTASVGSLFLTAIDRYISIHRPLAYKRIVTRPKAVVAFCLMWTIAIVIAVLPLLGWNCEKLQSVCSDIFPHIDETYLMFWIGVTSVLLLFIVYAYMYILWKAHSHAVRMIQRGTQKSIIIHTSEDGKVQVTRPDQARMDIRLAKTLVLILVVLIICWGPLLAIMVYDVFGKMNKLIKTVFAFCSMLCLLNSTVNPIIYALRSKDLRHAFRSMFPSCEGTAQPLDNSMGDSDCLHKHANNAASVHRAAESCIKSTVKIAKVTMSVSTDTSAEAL
UniProt P34972, whole entry: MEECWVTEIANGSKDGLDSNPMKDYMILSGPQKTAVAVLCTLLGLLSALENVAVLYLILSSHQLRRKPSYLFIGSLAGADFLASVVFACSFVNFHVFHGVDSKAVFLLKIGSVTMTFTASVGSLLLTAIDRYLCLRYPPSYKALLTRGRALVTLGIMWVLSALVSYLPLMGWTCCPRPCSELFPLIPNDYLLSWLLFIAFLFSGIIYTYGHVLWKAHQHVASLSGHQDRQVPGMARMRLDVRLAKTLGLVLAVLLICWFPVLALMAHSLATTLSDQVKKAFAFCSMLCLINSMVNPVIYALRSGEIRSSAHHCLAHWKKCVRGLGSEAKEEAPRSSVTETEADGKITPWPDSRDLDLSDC

Key:
human CB1 receptor [1] = target: T1, human CB1 receptor (Homo sapiens, UniProt P21554); assay: CB1 radioligand competitive binding assay ([3H]CP 55,940 displacement)
T1 construct: host or cells: CHO-K1

human CB2 receptor = target: T2, human CB2 receptor (Homo sapiens, UniProt P34972); assay: CB2 radioligand competitive binding assay ([3H]CP 55,940 displacement)
T2 construct: host or cells: CHO-K1

human CB1 receptor [2] = target: T1, human CB1 receptor; assay: PathHunter β-arrestin functional assay, CB1 receptor, agonist mode; assay type: cell-based

Question: Which “Selectivity CB1” value (human CB1 receptor [1]) does the source give for `CCCCCc1cc(O)c(C2C=C(C)CCC2)c(O)c1-c1nnn[nH]1` (stereo not drawn) [Compound 3c, 5′-methyl-4-pentyl-3-(1H-tetrazol-5-yl)-1′,2′,3′,4′-tetrahydro-[1,1′-biphenyl]-2,6-diol] here?
Answer: 1.00 fold

Question: And the “Selectivity CB2” value (human CB2 receptor)?
Answer: 1.00 fold

Question: And the “activity towards the human CB1 receptor, agonist mode” value (human CB1 receptor [2])?
Answer: minimal to no activity

Question: With `CCCCCc1cc(O)c(C2C=C(C)CCC2)c(O)c1-c1cncnc1` (stereo not drawn) [Compound 13c, 5′-methyl-4-pentyl-3-(pyrimidin-5-yl)-1′,2′,3′,4′-tetrahydro-[1,1′-biphenyl]-2,6-diol] as the compound, how does the “Selectivity CB1” value (human CB1 receptor [1]) read?
Answer: 1.00 fold

Question: What about the “Selectivity CB2” value (human CB2 receptor; fold difference in binding affinity, CB2 over CB1, 1.00 = about the same affinity for both receptors) of the same compound?
Answer: 1.00 fold

Question: What does the source list for `CCCCCc1cc(O)c(C2C=C(C)CCC2)c(O)c1-c1ccco1` (stereo not drawn) [Compound 15c, 3-(furan-2-yl)-5′-methyl-4-pentyl-1′,2′,3′,4′-tetrahydro-[1,1′-biphenyl]-2,6-diol]?
Answer: Selectivity CB2 (human CB2 receptor): 1.82 fold; activity towards the human CB1 receptor, agonist mode (human CB1 receptor [2]): minimal to no activity

Question: Which results are given for `CCCCCc1cc(O)c(C2C=C(C)CCC2)c(O)c1-c1ccsc1` (stereo not drawn) [Compound 17c, 5′-methyl-4-pentyl-3-(thiophen-3-yl)-1′,2′,3′,4′-tetrahydro-[1,1′-biphenyl]-2,6-diol]?
Answer: Selectivity CB2 (human CB2 receptor): 1.18 fold; activity towards the human CB1 receptor, agonist mode (human CB1 receptor [2]): minimal to no activity

Like-named read-outs stand apart in the source and are kept apart here.
